Results on three molecules are retold here after patent publication US10301278B2, “1-(triazin-3-yl/pyridazin-3-yl)-piper(-azine)idine derivatives and compositions therefor for inhibiting the activity of SHP2” (NOVARTIS AG, priority 2014, dated 2019).

By UniProt entry, the sequences of proteins in these tests, tags left out.
UniProt Q06124, whole entry: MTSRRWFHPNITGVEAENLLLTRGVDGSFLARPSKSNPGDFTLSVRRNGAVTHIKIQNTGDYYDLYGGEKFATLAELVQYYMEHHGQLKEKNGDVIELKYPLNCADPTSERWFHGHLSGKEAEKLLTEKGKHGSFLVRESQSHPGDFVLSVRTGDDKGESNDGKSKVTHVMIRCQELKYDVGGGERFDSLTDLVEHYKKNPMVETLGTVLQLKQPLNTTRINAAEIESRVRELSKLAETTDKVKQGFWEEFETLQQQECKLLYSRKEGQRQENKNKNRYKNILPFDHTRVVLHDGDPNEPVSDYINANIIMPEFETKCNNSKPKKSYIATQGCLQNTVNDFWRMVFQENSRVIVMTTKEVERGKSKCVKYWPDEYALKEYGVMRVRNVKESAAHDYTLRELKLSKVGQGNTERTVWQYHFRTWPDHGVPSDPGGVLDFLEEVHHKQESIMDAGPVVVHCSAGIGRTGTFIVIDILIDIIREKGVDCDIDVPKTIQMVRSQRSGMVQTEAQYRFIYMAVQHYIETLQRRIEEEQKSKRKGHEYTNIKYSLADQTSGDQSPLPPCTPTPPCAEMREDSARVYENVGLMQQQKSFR

This test concerns the target SHP2 (Homo sapiens (Human), UniProt Q06124). The experiment in a line: SHP2 allosteric inhibition assay (DiFMUP prompt fluorescence). Particulars: 0.5 nM SHP2 activated with 0.5 μM peptide IRS1_pY1172(dPEG8)pY1222; substrate DiFMUP; 25° C. In kind it is biochemical.

As usually defined, the IC50 is the point on the concentration scale where inhibition reaches its midpoint. A low value points to higher potency. The molecule `CC(N)C1(C)CCN(c2cnc(Sc3cccnc3C(F)(F)F)c(N)n2)CC1` (racemic) [41 P1] gave an IC50 of 97 nM.
In the case of `C[C@@]1(CN)CCN(c2cnc(Sc3cccnc3C(F)(F)F)c(N)n2)C[C@H]1O` (relative stereo) [31a], the IC50 came to 781 nM.
Turning to `C[C@@]1(CN)CCN(c2cnc(Sc3cccc(Cl)c3Cl)c(N)n2)C[C@@H]1O` (relative stereo) [27a], the IC50 came out at 76 nM.
